Sequences of proteins named here, by UniProt entry; tags and fusion partners are left off.
UniProt P28907, whole entry: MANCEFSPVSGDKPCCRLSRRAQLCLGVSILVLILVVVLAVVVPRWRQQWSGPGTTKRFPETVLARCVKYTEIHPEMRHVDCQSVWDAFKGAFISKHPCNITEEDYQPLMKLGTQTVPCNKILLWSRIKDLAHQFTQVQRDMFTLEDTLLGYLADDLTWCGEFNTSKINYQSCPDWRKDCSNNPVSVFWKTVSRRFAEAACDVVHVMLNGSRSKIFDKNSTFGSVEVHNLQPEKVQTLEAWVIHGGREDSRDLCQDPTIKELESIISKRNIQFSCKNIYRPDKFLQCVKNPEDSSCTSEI

According to ChEMBL document CHEMBL3351721, “Cyclic adenosine 5'-diphosphate ribose analogs without a "southern" ribose inhibit ADP-ribosyl cyclase-hydrolase CD38” (J Med Chem, 2014):

Biological target: ADP-ribosyl cyclase/cyclic ADP-ribose hydrolase 1 (Homo sapiens, UniProt P28907)
Experiment: Inhibition of human CD38 catalytic domain assessed as reduction in cADPR hydrolysis incubated for 10 mins by fluorimetric cycling assay
Method in brief: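 Analog (0–1 mM) incubated with 1 μM cADPR and 1 μg/mL human CD38 catalytic domain, 10 min, 20–24 °C, 25 mM sodium acetate pH 4.5. Stopped with 150 mM HCl, protein filtered off, neutralised with Tris base, diluted 20-fold. Remaining cADPR quantified by fluorimetric cycling assay; IC50 from dose–response.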

IC50: 158 µM
SMILES: O=c1c2nc(Br)n3c2ncn1[C@@H]1O[C@H](COP(=O)(O)OP(=O)(O)OC[C@H]2O[C@@H]3[C@H](O)[C@@H]2O)[C@@H](O)[C@H]1O
